From patent US20240018220A1

How the values were obtained:
[1] = biological target: purified human C5 (human) (UniProt P01031); assay: SEC-MALS of eculizumab + C5 + crovalimab mimetic; hypothetical complex drawn with 3 antibodies and 2 C5; predicted size 907 kDa
[2] = biological target: purified human C5 (human) (UniProt P01031); assay: SEC-MALS of eculizumab + C5 + crovalimab mimetic; hypothetical complex drawn with 2 antibodies and 1 C5; predicted size 532 kDa
[3] = biological target: purified human C5 (human) (UniProt P01031); assay: SEC-MALS of eculizumab + C5 + crovalimab mimetic; hypothetical complex drawn with 5 antibodies and 4 C5; predicted size 1649 kDa
[4] = biological target: purified human C5 (human) (UniProt P01031); assay: SEC-MALS in PBS; crovalimab mimetic 700 nM + C5 400 nM + eculizumab 700 nM; given to the peak near 11.1 min by order of elution and by FIG. 5; the complex also holds eculizumab [panel C]
[5] = biological target: purified human C5 (human) (UniProt P01031); assay: SEC-MALS in PBS; crovalimab mimetic 700 nM + C5 400 nM + eculizumab 700 nM; peak near 10.3 min; the complex also holds eculizumab [panel C]
[6] = biological target: purified human C5 (human) (UniProt P01031); assay: SEC-MALS in PBS; crovalimab mimetic 700 nM + C5 400 nM + eculizumab 700 nM; the arrow points to the shoulder near 9.2 min; the complex also holds eculizumab [panel C]
[7] = biological target: purified human C5 (human) (UniProt P01031); assay: SEC-MALS in PBS; crovalimab mimetic 3500 nM + C5 + eculizumab; peak near 11.1 min; the complex also holds eculizumab [panel D]
[8] = biological target: purified human C5 (human) (UniProt P01031); assay: SEC-MALS in PBS; crovalimab mimetic 3500 nM + C5 + eculizumab; shoulder near 9.3 min; the complex also holds eculizumab [panel D]
[9] = biological target: purified human C5 (human) (UniProt P01031); assay: SEC-MALS in PBS; crovalimab mimetic 3500 nM + C5 + eculizumab; peak near 10.3 min; the complex also holds eculizumab [panel D]
[10] = biological target: purified human C5 (human) (UniProt P01031); assay: SEC-MALS in PBS; crovalimab mimetic 700 nM + C5 400 nM + eculizumab 700 nM; peak near 9.7 min; the complex also holds eculizumab [panel C]
[11] = biological target: purified human C5 (human) (UniProt P01031); assay: SEC-MALS of eculizumab + C5 + crovalimab mimetic; hypothetical complex drawn with 4 antibodies and 3 C5; predicted size 1278 kDa
[12] = biological target: purified human C5 (human) (UniProt P01031); assay: SEC-MALS in PBS; crovalimab mimetic 3500 nM + C5 + eculizumab; small peak near 9.8 min; the complex also holds eculizumab [panel D]

- Observed size (kDa) [1]: 921 kDa
- Observed size (kDa) [2]: 540 kDa
- Observed size (kDa) [3]: 1570 kDa
- molar mass of complex peak (MALS) [4]: 540 kDa
- molar mass of complex peak (MALS) [5]: 921 kDa
- molar mass of complex peak (MALS) [6]: 1570 kDa
- molar mass of complex peak (MALS) [7]: 517 kDa
- molar mass of complex peak (MALS) [8]: 1560 kDa
- molar mass of complex peak (MALS) [9]: 869 kDa
- molar mass of complex peak (MALS) [10]: 1280 kDa
- Observed size (kDa) [11]: 1280 kDa
- molar mass of complex peak (MALS) [12]: 1230 kDa
Substance: mAb crovalimab mimetic (antibody)
